Measured values from PubChem BioAssay AID1276 (Columbia University Molecular Screening Center, 2008).
The entries are a selection whose mix differs from that of the whole data set. Calls of active or inactive are those of the source.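 The calls were made as follows: active = activation above a set limit, based on mean plus 3 SD of controls (cut at about 140% in these data); inconclusive = one replicate above the limit, the other below; inactive = the rest.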

Assay: APP 5'UTR reporter signal increase – luciferase, SH-SY5Y cells, primary screen (AID 1276)
Conditions: SH-SY5Y APP 5'UTR luciferase reporter, luminescence; at 2 µM; active compounds read high; zero percent = DMSO vehicle wells

SMILES	activation
CCOC(=O)c1ccc(NP(C)(=O)Oc2cc(C)cc(C)c2)cc1 (stereo not drawn)	inactive: 2.06%
Cc1cc(C)cc(OP(C)(=O)Nc2ccc(C)cc2C)c1 (stereo not drawn)	inactive: 6.87%
Cc1ccc(C)c(NP(C)(=O)Oc2ccccc2)c1 (stereo not drawn)	inactive: 1.74%
CP(=O)(Nc1cccc(Br)c1)Oc1ccccc1 (stereo not drawn)	inactive: -21.7%
Cc1cc(C)cc(OP(C)(=O)Nc2ccccn2)c1 (stereo not drawn)	inactive: 0.04%
CC1=NCCc2c1[nH]c1ccccc21.O=[N+]([O-])c1cc([N+](=O)[O-])c(O)c([N+](=O)[O-])c1	inactive: 5.97%
CN1CCCCC1COC(=O)C1(O)c2ccccc2CCc2ccccc21 (stereo not drawn)	inactive: -8.7%
COc1ccccc1OP(C)(=O)Nc1c(C)cccc1C (stereo not drawn)	inactive: -13.5%
CP(=O)(Nc1ccc(SC(F)(F)F)cc1)Oc1ccccc1 (stereo not drawn)	inactive: 19.6%
CCCOc1ccc(NP(C)(=O)Oc2ccc(Cl)cc2)cc1 (stereo not drawn)	inactive: 25.1%
O=[N+]([O-])c1cc([N+](=O)[O-])c(-n2nnc3ccccc32)c([N+](=O)[O-])c1	inactive: -36%
Cc1nc2ccc3ccccc3c2s1.O=[N+]([O-])c1cc([N+](=O)[O-])c(O)c([N+](=O)[O-])c1	inactive: -1.88%
Cc1cccc(C)c1OP(C)(=O)Nc1ccc(SC(F)(F)F)cc1 (stereo not drawn)	inactive: 4.95%
CP(=O)(Oc1ccccc1)OC(c1ccccc1)C(F)(F)F (stereo not drawn)	inactive: 13.5%
CP(=O)(NC(=O)Nc1ccccc1)Oc1ccccc1 (stereo not drawn)	inactive: 10.1%
Cc1cc(C)cc(OP(C)(=O)Nc2ccc(SC(F)(F)F)cc2)c1 (stereo not drawn)	inactive: 8.39%
CCOC(=O)c1ccc(NP(C)(=O)Oc2ccc(OC)cc2)cc1 (stereo not drawn)	inactive: -5.88%
CCOP(C)(=S)SCC(=O)NC(C)C(=O)O (stereo not drawn)	inactive: -3.66%
CP(=O)(Nc1ccccn1)Oc1ccc(Cl)cc1 (stereo not drawn)	inactive: -9.58%
CP(=S)(Nn1cnnc1)Oc1ccccc1 (stereo not drawn)	inactive: 3.69%
CP(=O)(Nc1ccccc1Br)Oc1ccccc1 (stereo not drawn)	inactive: -2.19%
COc1ccccc1OP(C)(=O)Nc1ccccc1 (stereo not drawn)	inactive: -1.81%
O=[N+]([O-])c1ccc2c(c1)C=Nc1ccccc1O2	inactive: 2.05%

SMILES	activation
CC(C)(C)c1ccc(OP(C)(=O)Nc2ccc(SC(F)(F)F)cc2)cc1 (stereo not drawn)	inactive: 5.58%
Cc1cccc(C)c1OP(C)(N)=O (stereo not drawn)	inactive: 10.6%
COc1ccccc1OP(C)(=O)Nc1ccc(C)cc1 (stereo not drawn)	inactive: 15.2%
Cc1ccc(NP(C)(=O)Oc2ccccc2)c(C)c1 (stereo not drawn)	inactive: -12%
CCOC(=O)c1ccc(NP(C)(=O)Oc2ccccc2)cc1 (stereo not drawn)	inactive: 2.63%
Cc1cc(C)cc(OP(C)(N)=O)c1 (stereo not drawn)	inactive: -15.6%
COc1ccccc1OP(C)(=O)Nc1cc(Cl)ccc1C (stereo not drawn)	inactive: 9.54%
COc1ccc(OP(C)(=O)Nc2cccc(F)c2)cc1 (stereo not drawn)	inactive: 7.41%
CCN(CC)CCCOC(=O)C(O)(c1ccccc1)c1ccccc1	inactive: 5.82%
COc1ccc(OP(C)(=O)Nc2ccccn2)cc1 (stereo not drawn)	inactive: -2.38%
CN(C)CCOC(=O)C(O)(c1ccccc1)C1CCCC1 (stereo not drawn)	inactive: -9.15%
Cc1c(NP(C)(=O)Oc2ccc(C(C)C)cc2)c(=O)n(-c2ccccc2)n1C (stereo not drawn)	inactive: 5.54%
CP(=O)(Nc1ccccn1)Oc1ccccc1 (stereo not drawn)	inactive: -8.11%
COc1ccccc1OP(C)(=O)Nc1ccc(C)cc1C (stereo not drawn)	inactive: 10.3%
CCc1ccc(OP(C)(=O)O)cc1	inactive: -7.13%
Cc1cc(C)cc(OP(C)(=O)Nc2cccc(C(F)(F)F)c2)c1 (stereo not drawn)	inactive: -15.2%
COc1ccccc1OP(C)(=O)Nc1ccc(C)c(C)c1 (stereo not drawn)	inactive: 21.4%
COc1ccc(OP(C)(=O)Nc2ccccc2Br)cc1 (stereo not drawn)	inactive: 2.03%
Cc1nc2ccc3ccccc3c2o1.O=[N+]([O-])c1cc([N+](=O)[O-])c(O)c([N+](=O)[O-])c1	inactive: 6.65%
CP(=O)(OCCOc1ccccc1)OCCOc1ccccc1	inactive: -7.07%
CP(=O)(Nc1ccc(Cl)cc1Cl)Oc1ccccc1 (stereo not drawn)	inactive: 2.4%
CCOC(=O)c1ccc(NP(C)(=O)Oc2ccc(Cl)cc2)cc1 (stereo not drawn)	inactive: 3.78%
CP(=O)(OC12CC3CC(CC(C3)C1)C2)OC12CC3CC(CC(C3)C1)C2	inactive: -10.3%

SMILES	activation
CCN(CC)CC(O)COC(=O)C(O)(c1ccccc1)C1CCCCC1 (stereo not drawn)	inactive: -1.84%
COc1ccc(OP(C)(=O)Nc2ccc(Br)cc2)cc1 (stereo not drawn)	inactive: 10.9%
COc1ccccc1OP(C)(=O)Nc1c(C)n(C)n(-c2ccccc2)c1=O (stereo not drawn)	inactive: 4.15%
CP(=O)(Oc1ccccc1)N1CCOC1=O (stereo not drawn)	inactive: 1.7%
CCc1ccc(OP(C)(=O)Nc2cccnc2)cc1 (stereo not drawn)	inactive: 14.2%
CC(C)(C)c1ccc(OP(C)(=O)O)cc1	inactive: -8.43%
COc1ccccc1OP(C)(=O)Nc1ccccc1Br (stereo not drawn)	inactive: 0.62%
CP(=O)(Nc1ccc(Cl)cc1)Oc1ccc(F)cc1 (stereo not drawn)	inactive: -1.93%
CN(C)C(=O)c1c([N+](=O)[O-])cc([N+](=O)[O-])cc1[N+](=O)[O-]	inactive: -7.93%
CP(=O)(Nc1ccc2c(c1)OCCO2)Oc1ccccc1 (stereo not drawn)	inactive: -5.72%
Cc1ccccc1NP(C)(=O)Nc1ccccc1C	inactive: -7.81%
COc1ccc(OP(C)(=O)Nc2cccc(Br)c2)cc1 (stereo not drawn)	inactive: 1.72%
CN(C)CCOC(=O)C(O)(c1ccccc1)C1CCCCC1 (stereo not drawn)	inactive: 6.26%
COc1ccc(NP(C)(=O)Oc2ccccc2OC)cc1 (stereo not drawn)	inactive: -15.8%
O=[N+]([O-])c1cc([N+](=O)[O-])c(NCC2CCS(=O)(=O)C2)c([N+](=O)[O-])c1 (stereo not drawn)	inactive: -6.99%
CCOC(=O)c1ccc(NP(C)(=O)Oc2ccc(F)cc2)cc1 (stereo not drawn)	inactive: 18.9%
COc1ccc(OP(C)(=O)Nc2ccc(SC(F)(F)F)cc2)cc1 (stereo not drawn)	inactive: 13.5%
CCN(CC)CCCOC(=O)C(O)(c1ccccc1)C1CCCCC1 (stereo not drawn)	inactive: -8.83%
CP(=O)(Nc1ccccc1)Oc1ccc(F)cc1 (stereo not drawn)	inactive: -7.04%
CP(=O)(Nc1ccccc1F)Oc1ccccc1 (stereo not drawn)	inactive: -3.17%
CC(C)c1ccc(OP(C)(=O)Nc2ccc(SC(F)(F)F)cc2)cc1 (stereo not drawn)	inactive: 11%
O=C(OCCN1CCN(CCOCc2ccccc2)CC1)C(O)(c1ccccc1)c1ccccc1	inactive: -6.29%
